Patent US20160279108A1, “TARGETED MTOR INHIBITORS” (UNIVERSITY OF KANSAS, priority 2015, published 2016)

Columns and labels:
[1] = Tissue distribution in tumor-bearing mice; type: in vivo, BALB/c mice
Protocol: Drug tissue distribution was determined in female BALB/c mice (n=5). Tissue samples (50 mg) in 500 μL PBS were homogenized using a Tissue Tearor (BioSpec Products, Inc., Bartivesville, Okla.). The homogenized tissue was mixed with 250 μL ZnSO4 and 500 μL methanol. The mixture solution was centrifuged and the supernatant was analyzed by LC/MS.
In the tissue distribution study, BLAB/c mice were administered the drugs 12 h before being euthanized. Major organs (liver, kidneys, hear, spleen, lungs, brain, muscle), tumor and lymph nodes were excised and lightly washed with PBS. The organs were stored at −80° C. until analyzed by LC/MS.

[2] = Pharmacokinetics study in rats; type: in vivo, Sprague-Dawley rats; conditions: for AUC0→∞ greater than that of the free drug / total body clearance slower than that of the free drug: HA-L-Rapa s.c. vs free rapamycin i.p.
Protocol: Whole blood was withdrawn (100 μL) from the tail vein at 0 min, 5 min, 30 min, 1 h, 2 h, 4 h, 6 h, 12 h, 24 h and 48 h after dosing and placed in heparinized tubes (BD Vacutainer® Lithium Heparin 37 USP unit, BD Franklin Lakes, N.J.). The whole blood was centrifuged at 15,000×g for 10 min, and the plasma was frozen at −80° C. until analyzed. The animal use statement was approved by the University of Kansas Institutional Animal Care and Use Committee. Plasma samples and stander curves were prepared using a procedure reported previously.

[3] = In vitro drug release from HA-drug conjugates by dialysis; type: physicochemical
Protocol: To prevent bacteria growth, 0.05% sodium azide was added to the serum release medium, and the medium was changed several times a day to maintain sink conditions.

[4] = system: MDA-MB-468 cells; conditions: CD44 positive MDA-MB-468 cells, 10 μM, p=0.027
[5] = mice, 12 h post 10 mg/kg equivalent rapamycin, i.p. (free rapamycin), s.c. (HA-L-Rapa), Mean ± SD, n=5
[6] = listed as rapamycin conjugated to hyaluronic acid by a 3-amino-4-methoxy-benzoic acid link
[7] = free rapamycin i.p., HA-L-Rapa s.c., Mean ± SD, n=3

HA-Rapamycin-42-(3′-amino-4′-methoxy)benzoate [HA-L-Rapa]
drug concentration in lung greater than the free drug treatment group ([1]; 12 h after s.c. injection): 3.23 fold
drug concentration in lymph greater than the free drug treatment group ([1]; 12 h after s.c. injection): 2.78 fold
drug concentration in tumor greater than the free drug treatment group ([1]; 12 h after s.c. injection): 1.56 fold
Mean concentration of rapamycin in Brain [1, 5]: 195.01 ± 48.56 µg/g
Mean concentration of rapamycin in Heart [1, 5]: 358.88 ± 110.31 µg/g
Mean concentration of rapamycin in Kidneys [1, 5]: 495.04 ± 349.05 µg/g
Mean concentration of rapamycin in Liver [1, 5]: 565.56 ± 54.06 µg/g
Mean concentration of rapamycin in Lungs [1, 5]: 1990.00 ± 634.80 µg/g
Mean concentration of rapamycin in Lymph [1, 5]: 1972.78 ± 634.80 µg/g
Mean concentration of rapamycin in Muscle [1, 5]: 927.64 ± 453.48 µg/g
Mean concentration of rapamycin in Spleen [1, 5]: 1386.31 ± 342.71 µg/g
Mean concentration of rapamycin in Tumor [1, 5]: 1931.84 ± 195.46 µg/g
AUC0→∞ greater than that of the free drug [2]: 2.78 fold
total body clearance slower than that of the free drug [2]: 2.09 fold
AUC0→∞ greater than that of the free drug [2, 6]: 2.96 fold
total body clearance slower than that of the free drug [2, 6]: 8.82 fold
Vd ([2]; free rapamycin i.p., HA-L-Rapa s.c., 10 mg/kg equivalent rapamycin, Mean ± SD, n=3): 12.88 ± 5.24 L/kg
AUC0→∞ [2, 7]: 6.57 ± 0.92 µg·h/mL
CI [2, 7]: 2.02 ± 0.73 L/kg/h
t1/2 [2, 7]: 27.95 ± 13.33 h
Cmax ([2]; plasma, free rapamycin i.p., HA-L-Rapa s.c., Mean ± SD, n=3): 544.84 ± 123.56 ng/mL
rate constant of release ([3]; PBS, 37° C.): 0.01767 h⁻¹
rate constant of release ([3]; serum): 0.00344 h⁻¹
decrease of cell-viability compared to rapamycin [4]: 8.72%
